In the experiment the target is cloned human κ opioid receptor (KOP) (Homo sapiens, UniProt P41145). Nature of the experiment: [35S]GTPγS binding assay, inhibition of U69,593-stimulated binding. In kind it is biochemical. The settings on record: ratio of Ke values.

Sequences of proteins named here, by UniProt entry; tags and fusion partners are left off. A change or cut given only in a name is not applied to a line headed by its entry.
UniProt P41145: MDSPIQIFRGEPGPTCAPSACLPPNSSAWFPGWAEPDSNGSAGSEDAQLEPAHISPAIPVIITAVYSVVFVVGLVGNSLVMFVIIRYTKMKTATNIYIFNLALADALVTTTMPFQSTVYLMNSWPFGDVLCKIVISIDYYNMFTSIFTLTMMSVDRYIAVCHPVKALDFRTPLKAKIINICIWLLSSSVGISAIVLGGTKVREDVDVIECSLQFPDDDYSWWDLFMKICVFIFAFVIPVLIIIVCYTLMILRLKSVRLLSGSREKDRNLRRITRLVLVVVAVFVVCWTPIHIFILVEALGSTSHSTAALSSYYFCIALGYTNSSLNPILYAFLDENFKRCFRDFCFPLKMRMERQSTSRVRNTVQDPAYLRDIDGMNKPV

Turning to norBNI [reference compound], the δ/κ (selectivity for κ relative to δ (fold)) came out at 580. For the same substance, the μ/κ (selectivity for κ relative to μ (fold)) was 534.
